Measured values reported in patent US10648968B2, “In vitro test system to evaluate xenobiotics as immune-modulators of drug transport and metabolism in human hepatocytes” (XenoTech, LLC, priority 2011, dated 2020).

What was measured:
[1] = test system: CYP1A2, CYP2B6 and CYP3A4 mRNA; assay: qRT-PCR of CYP mRNA levels in treated human hepatocytes; format: cell-based; conditions: same hepatocytes after treatment, changes corresponding to effects on enzymatic activities
[2] = test system: CYP2B6; conditions: hepatocytes
[3] = test system: CYP3A4; conditions: hepatocytes
[4] = test system: CYP1A2; conditions: hepatocytes

| Substance | levels of specific mRNAs (CYP1A2, CYP2B6, CYP3A4) [1] | CYP2B6 activity [2] | CYP3A4 activity [3] | CYP1A2 activity [4] |
| --- | --- | --- | --- | --- |
| lipopolysaccharides [LPS] | expected corresponding changes |  |  |  |
| IL-6: interlukin-6 (10 ng/mL), a known suppressor of human CYP3A4 (additional positive control) | expected corresponding changes | anticipated decreases | anticipated decreases | anticipated decreases |
